US20200368338A1, “CONJUGATE OF WT1-DERIVED PEPTIDES AND COMPOSITION COMPRISING THE SAME” (SUMITOMO DAINIPPON PHARMA CO., LTD., priority 2017, published 2020)

System: HLA-A0201 transgenic mouse
Experiment: Evaluation of CTL inducing ability in vivo in HLA-A0201 transgenic mouse (IFNγ ELISPOT assay of splenocytes)
Settings: intradermal emulsion with Montanide ISA 51 VG, tail base, two sites, splenocytes stimulated with peptide of SEQ ID NO: 2, FIG. 2

Sequence: RMFPNAPYL (Arg-Met-Phe-Pro-Asn-Ala-Pro-Tyr-Leu) [peptide of SEQ ID NO: 2, HLA-A0201-restricted WT1 peptide]
- induction of CTLs responsive to the peptide of SEQ ID NO: 2 (IFNγ-producing splenocytes): induced CTLs responsive to the peptide of SEQ ID NO: 2
